Values quoted from earlier work as cited in US20190027771A1, “ACID GAS REGENERABLE BATTERY” (Commonwealth Scientific and Industrial Research Organisation, priority 2015, published 2019).

Conditions: in a 3M ammonia solution, in the presence of CO2, CO2-loading range relevant to a capture process

SMILES: [Cu+2] [Cu^2+]
- Solubility: at least 0.6 M
